Source: patent US20260250410A1, “ANTIBODY AND USE THEREOF” (SICHUAN HUIYU PHARMACEUTICAL CO., LTD., priority 2022, published 2026)

Experiment: SEC-HPLC purity of ADC molecules stored at 2 to 8° C.
Type: physicochemical
Description: The denaturation temperature (I'm value), aggregation temperature (Tagg value) and hydration kinetic diameter of ADC molecules were measured by UNcle multifunctional protein stability analysis system. Wherein, the Tm value was based on endogenous fluorescence spectroscopy method, and was fitted and calculated according to BCM algorithm, the Tagg value was measured by static light scattering (SLS) technology, and the hydration dynamics diameter was measured by dynamic light scattering (DLS) technology. • SEC purity detection: The purity of ADC molecules was analyzed by high performance liquid chromatography (HPLC). • Liquid chromatograph: Shimadzu LC-2030C Plus • chromatographic column: TSKgel G3000SWXL, 7.8×300 mm, 5 μm, TOSOH • mobile phase: 61 mmol/L Na2HPO4, 39 mmol/L NaH2PO4, 200 mmol/L NaCl, pH6.8 • flow rate: 1.0 ml/min • Detection wavelength: UV 220 nm • column temperature: 30° C. • Sample chamber temperature: 10° C. • Injection volume: 20 μg • Isocratic running time: 30 min
Quantitative analysis of the results was performed using peak area normalization method. If automatic integration failed due to reasons such as baseline drift, retention time variation, peak shape change or other reasons, integration parameters should be adjusted or the spectrum should be manually integrated. The main peak (MP) was the monomer peak, the peak with a retention time before the main peak was the aggregate peak (HMW), and the peak with a retention time after the main peak was the low molecular weight impurity peak (LMW).
In addition, 1CP-152-MMAE and CD27H10-MMAE were placed at 2 to 8° C. for different time (0 days, 3 days, 5 days) to investigate the change in purity of the two molecules.

B1: 1CP-152-MMAE: humanized antibody 1CP-152 linked to vc-MMAE, target DAR 4 (conjugate)
heavy: EVQLVESGGGLVQPGRSLRLSCTTSGLTFTHYHMSWVRQAPGKGLEWVAIIRNKAYGYTTDYSASVRGRFTISRDDSKSILYLQMNSLKTEDTAVYYCVREGGYGYDGTFAYWGQGTLVTVSSASTKGPSVFPLAPSSKSTSGGTAALGCLVKDYFPEPVTVSWNSGALTSGVHTFPAVLQSSGLYSLSSVVTVPSSSLGTQTYICNVNHKPSNTKVDKKV[left out - human IgG1 Fc]
light: DIQMTQSPSSLSASVGDRVTITCRASESVDNYGISFMNWFQQKPGQAPKLLIYAASNQGSGVPSRFSGSGSGTDFTLTISSMQPEDFATYYCQQSKEVPRTFGGGTKVEIKRTVAAPSVFIFPPSDEQLKSGTASVVCLLNNFYPREAKVQWKVDNALQSGNSQESVTEQDSKDSTYSLSSTLTLSKADYEKHKVYACEVTHQGLSSPVTKSFNRGEC
Q: Which “HMW D 3” value (SEC aggregate peak, 2 to 8° C., 3 days) does the source give for B1 here?
A: 1.9

Q: What about the “HMW D 5” value (SEC aggregate peak, 2 to 8° C., 5 days) of the same molecule?
A: 1.9

Q: And the “LMW D 5” value (SEC low molecular weight peak, 2 to 8° C., 5 days)?
A: 0.8

Q: And the “decrease of purity after leaving at 2-8° C. for 5 days” value (SEC purity, D 5 vs D 0)?
A: did not change
